Source: patent publication US9944597B2, “Polysubstituted pyrroles having microtubule-disrupting, cytotoxic and antitumor activities and methods of use thereof” (THE BOARD OF REGENTS OF THE UNIVERSITY OF TEXAS SYSTEM, priority 2013, dated 2018)

The chains behind the UniProt entries cited, without tags or fusion partners.
UniProt P02554, whole entry: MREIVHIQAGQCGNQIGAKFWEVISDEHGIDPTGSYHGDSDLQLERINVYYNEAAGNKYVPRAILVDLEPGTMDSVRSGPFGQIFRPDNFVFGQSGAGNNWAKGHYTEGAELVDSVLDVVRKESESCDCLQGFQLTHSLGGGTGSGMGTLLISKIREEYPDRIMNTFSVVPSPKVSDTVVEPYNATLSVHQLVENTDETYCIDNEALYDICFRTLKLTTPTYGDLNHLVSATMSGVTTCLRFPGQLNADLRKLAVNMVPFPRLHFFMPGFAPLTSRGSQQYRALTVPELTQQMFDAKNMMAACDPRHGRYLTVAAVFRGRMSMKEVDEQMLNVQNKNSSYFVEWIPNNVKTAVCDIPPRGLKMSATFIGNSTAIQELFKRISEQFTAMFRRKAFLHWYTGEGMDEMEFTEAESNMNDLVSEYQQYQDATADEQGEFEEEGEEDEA

Key:
[1] = target: T1, purified porcine brain tubulin (Sus scrofa, UniProt P02554); test: Inhibition of polymerization of purified tubulin (absorbance at 340 nm); type: biochemical
T1 construct: of Purified Porcine Brain Tubulin; from tissue; host or cells: porcine brain

[2] = target: colchicine binding site on tubulin (Sus scrofa, UniProt P02554); test: Colchicine site binding, fluorometric assay

Compound: COc1ccc(/C=C\c2cc(OC)c(OC)c(OC)c2)cc1O [CA-4, Combretastatin A-4, reference compound]
- % Inhibition of Tubulin Polymerization ([1]; compound at 2 μM): 16%
- % Inhibition of Tubulin Polymerization ([1]; compound at 10 μM): 82%
- inhibition of colchicine binding to tubulin ([2]; at 10 μM): approximately 80%
- effect on colchicine binding (FIG. 9) ([2]; result in words): inhibits colchicine binding
